The list shows a part of the results, in another mix than the full data. Activity calls are given as the source filed them. Rule as the data show it: active = potentiation above about 50%; inconclusive = mostly about 30% to 49%; inactive = weaker than that.
Biological target: D(2) dopamine receptor (Homo sapiens) (UniProt P14416)
Experiment: Beta-Arrestin HTS for Positive Allosteric Modulators of the Human D2 Dopamine Receptor: Potentiators
Conditions: DiscoveRx D2 beta-arrestin cells, luminescence, 90 min; active compounds read high; 100% = 57 uM dopamine signal
Method in brief: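 PathHunter beta-arrestin assay in DiscoveRx D2 cells. Compounds were added with an EC20 of dopamine (50 nM final) for 90 min at 37 deg C. Luminescence was read 1 h after detection reagent, with 57 uM dopamine as the EC100 control.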

The chains behind the UniProt entries cited, without tags or fusion partners.
UniProt P14416, whole entry: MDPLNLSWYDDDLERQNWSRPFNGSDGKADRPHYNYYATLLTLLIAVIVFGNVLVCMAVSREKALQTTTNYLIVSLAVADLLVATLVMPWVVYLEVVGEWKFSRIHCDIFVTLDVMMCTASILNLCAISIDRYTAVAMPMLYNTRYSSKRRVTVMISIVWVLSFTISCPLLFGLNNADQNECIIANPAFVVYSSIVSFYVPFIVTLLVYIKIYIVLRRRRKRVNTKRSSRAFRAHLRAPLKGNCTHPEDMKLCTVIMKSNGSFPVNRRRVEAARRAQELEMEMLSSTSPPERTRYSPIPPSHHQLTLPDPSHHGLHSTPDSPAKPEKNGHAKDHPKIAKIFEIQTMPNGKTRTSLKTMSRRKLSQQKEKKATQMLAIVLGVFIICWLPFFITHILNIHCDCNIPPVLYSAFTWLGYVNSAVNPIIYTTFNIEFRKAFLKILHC

SMILES | potentiation
CCN(N=Nc1nonc1N)c1nonc1N | inactive: -3.54%
O=[N+]([O-])c1cc([N+](=O)[O-])c(Nc2cccnc2)c([N+](=O)[O-])c1 | inactive: -21%
C[As](=O)(O)c1cccc(C(=O)O)c1 | inactive: -3.45%
O=[As](O)(c1ccc(O)cc1)c1ccccc1O | inactive: -5.61%
O=[N+]([O-])c1ccc(-c2cc([N+](=O)[O-])c(O)c([N+](=O)[O-])c2)cc1 | inactive: -16.7%
COc1cc(C(=O)NCC2(N3CCOCC3)CCCCC2)ccc1OCC(C)C | inactive: -6.28%
Cc1ccc(OP(=O)(Nc2ccc([N+](=O)[O-])cn2)Oc2ccc(C)cc2)cc1 | inactive: -5.73%
CC(C)(C)c1ccc(OP(C)(=O)Nc2ccc(SC(F)(F)F)cc2)cc1 (centres undefined) | inactive: -22%
Cc1cccc(C)c1OP(C)(N)=O (centres undefined) | inactive: -2.22%
O=[N+]([O-])c1ccc2c(c1)C=Nc1ccccc1O2 | inactive: 1.91%
Cc1ccc2nc3c(c(C)c2c1)CC(C(Cl)Cl)S3 (centres undefined) | inactive: 5.94%
CCOC(=O)c1ccc(NP(C)(=O)Oc2ccccc2)cc1 (centres undefined) | inactive: 2.71%
ClCCSc1nnc(-c2cccnc2)o1 | inactive: -16.9%
COc1ccccc1OP(C)(=O)Nc1ccc(C)cc1 (centres undefined) | inactive: 2.17%
COC(=O)C1(C)COP(=O)(N2CCCCCC2)OC1 (centres undefined) | inactive: -7.22%
CC(C)c1ccc(OP(=O)(Nc2ccccn2)Oc2ccccc2F)cc1 (centres undefined) | inactive: 0.801%
Cc1ccc(NP(C)(=O)Oc2ccccc2)c(C)c1 (centres undefined) | inactive: -13%
CC(C)NC(=O)NP(=O)(Oc1ccccc1)Oc1ccccc1 | inactive: -2.72%
COc1ccccc1OP(C)(=O)Nc1cc(Cl)ccc1C (centres undefined) | inactive: -18.4%
O=C(OC1CN2CCC1CC2)c1cccc2[nH]cnc12 (centres undefined) | inactive: -3.25%
CCN(CC)C(=S)SC(NC=O)C(Cl)(Cl)Cl (centres undefined) | inactive: -12.1%
COc1ccc(OP(C)(=O)Nc2cccc(F)c2)cc1 (centres undefined) | inactive: -0.924%
O=[N+]([O-])c1cc([N+](=O)[O-])c(-c2ccn[nH]2)s1 | inactive: 3.59%
Cc1cc(C)cc(OP(C)(N)=O)c1 (centres undefined) | inactive: 3.14%

SMILES | potentiation
Cc1c2c(nc3ccccc13)SC(C(Cl)Cl)C2 (centres undefined) | inactive: -9.89%
O=C(OC1CN2CCC1CC2)C12CC3CC(CC(C3)C1)C2 (centres undefined) | inactive: -19.9%
CCN(CC)CCCOC(=O)C(O)(c1ccccc1)c1ccccc1 | inactive: -11.4%
Cc1cc(=O)[nH]c(N[N+](=O)[O-])n1 | inactive: -2.43%
O=P1(N(CCCl)CCCl)OCCCN1CCCl (centres undefined) | inactive: -9.87%
O=P1(N(CCCl)CCCl)Nc2ccccc2N1 | inactive: -3.8%
COc1ccc2nc(NP(=O)(c3ccccc3)c3ccccc3)sc2c1 | inactive: 1.25%
COc1cc(I)ccc1[As](=O)(O)O | inactive: -1.4%
COc1ccc(N/C(=N/P(=O)(N2CCOCC2)N2CCOCC2)N2CCOCC2)cc1 | inactive: -0.901%
COP1(=S)c2c(C)nn(CCC#N)c2N=C(c2ccc(F)cc2)N1C (centres undefined) | inactive: -5.77%
CP(=O)(Nc1ccc(SC(F)(F)F)cc1)Oc1ccc(Cl)cc1 (centres undefined) | inactive: -9.21%
Cc1cccc(C)c1OP(C)(=O)Nc1ccc(SC(F)(F)F)cc1 (centres undefined) | inactive: -19%
COC(=O)C1(C)COP(=O)(N2CCCC2)OC1 (centres undefined) | inactive: -10.2%
CP(=O)(Oc1ccccc1)OC(c1ccccc1)C(F)(F)F (centres undefined) | inactive: -8.62%
CP(=O)(NC(=O)Nc1ccccc1)Oc1ccccc1 (centres undefined) | inactive: 5.13%
O=C(COc1ccccc1)OC1CN2CCC1CC2 (centres undefined) | inactive: -8.53%
CCc1ccc(OP(C)(=O)N2CCN(c3ccc([N+](=O)[O-])cc3)CC2)cc1 (centres undefined) | inactive: -7.15%
O=C(Nc1ccncc1[N+](=O)[O-])c1ccc([N+](=O)[O-])cc1[N+](=O)[O-] | inactive: 4.42%
Cc1cc(C)cc(OP(C)(=O)Nc2ccc(SC(F)(F)F)cc2)c1 (centres undefined) | inactive: -2.48%
O=C(OC1CN2CCC1CC2)c1cccc([N+](=O)[O-])c1 (centres undefined) | inactive: -6.28%
CCOP(C)(=S)SCC(=O)NC(C)C(=O)O (centres undefined) | inactive: -18.3%
CSc1ccc(Nc2c([N+](=O)[O-])cc([N+](=O)[O-])cc2[N+](=O)[O-])cc1 | inactive: -24.8%
O=[N+]([O-])c1cc([N+](=O)[O-])c(O)c([N+](=O)[O-])c1.c1ccc(Oc2ccncc2)cc1 | inactive: -23.9%
CCOC(=O)c1ccc(NC(=O)C(C)(CCl)SC)cc1 (centres undefined) | inactive: -7%

SMILES | potentiation
CCOC(=O)c1ccc(NP(C)(=O)Oc2ccc(OC)cc2)cc1 (centres undefined) | inactive: 3.39%
CCC(C)N(CC(C)C)C(=S)SC(NC(C)=O)C(Cl)(Cl)Cl (centres undefined) | inactive: -23%
CP(=O)(Nc1ccccn1)Oc1ccc(Cl)cc1 (centres undefined) | inactive: -18.2%
O=C(O)C(=O)c1ccc(N(CCCl)CCCl)cc1.c1ccc(Nc2ccccc2)cc1 | inactive: -7.52%
CCOC(=O)Nc1ccc([As](=O)(O)O)c(O)c1 | inactive: 2.79%
CC1CCNP(=O)(N(CCCl)CCCl)O1 (centres undefined) | inactive: -15.6%
COP(=O)(OC)N1CC1c1ccccc1 (centres undefined) | inactive: -8.18%
CCCCOc1ccc(C(=O)NCC2(N3CCCCC3)CCCCC2)cc1OC | inactive: -10.4%
Cc1cc(SC(NC(=O)c2ccccc2)C(Cl)(Cl)Cl)nc(C(C)C)n1 (centres undefined) | inactive: -11.5%
CP(=S)(Nn1cnnc1)Oc1ccccc1 (centres undefined) | inactive: -3.45%
CCOC(=O)Nc1cccc([As](=O)(O)O)c1 | inactive: -3.83%
Cc1cc(SC(NC=O)C(Cl)(Cl)Cl)ncn1 (centres undefined) | inactive: -6.42%
O=P(Nc1ccccn1)(c1cccc2ccccc12)c1cccc2ccccc12 | inactive: -1.99%
COc1ccccc1OP(C)(=O)Nc1ccccc1 (centres undefined) | inactive: -0.0722%
CP(=O)(Nc1ccccc1Br)Oc1ccccc1 (centres undefined) | inactive: -2.2%
O=[N+]([O-])c1ccc(Nc2ccc(Oc3ccc([N+](=O)[O-])cc3[N+](=O)[O-])cc2)c([N+](=O)[O-])c1 | inactive: -13.2%
Cc1nn(-c2ccccc2)c2c1P(=O)(N1CCOCC1)N(C)C(c1ccccc1)=N2 (centres undefined) | inactive: 7.69%
Cc1ccc(C(=O)OC2CN3CCC2CC3)cc1 (centres undefined) | inactive: 12.8%
CC1CCC(C(C)C)C(OP(=O)(Nc2ccccn2)c2ccccc2)C1 (centres undefined) | inactive: -13.3%
COc1cc(C2NCCC3(OCCO3)C2(C)C)cc(OC)c1OC.O=[N+]([O-])c1cc([N+](=O)[O-])c(O)c([N+](=O)[O-])c1 (centres undefined) | inactive: -20.9%
CC1=C2N=C(C=C3N=C(C(C)=C4[N-][C@@](C)([C@@H]5N=C1[C@](C)(CCC(=O)NC[C@@H](C)OP(=O)([O-])O[C@H]1[C@@H](O)[C@@H](n6cnc7cc(C)c(C)cc76)O[C@@H]1CO)[C@H]5CC(N)=O)[C@@](C)(CC(N)=O)[C@@H]4CCC(N)=O)[C@@](C)(CC(N)=O)[C@@H]3CCC(N)=O)C(C)(C)[C@@H]2CCC(N)=O.[C-]#N.[Co+3] | inactive: -9.78%
CN(C)C1(CNC(=O)c2ccc(S(C)(=O)=O)cc2)CCCCC1 | inactive: -5.51%
O=[N+]([O-])c1cc([N+](=O)[O-])c(Nc2nnnn2CCO)c([N+](=O)[O-])c1 | inactive: -26.3%
O=C(/C=C/c1ccccc1)OC1CN2CCC1CC2 (centres undefined) | inactive: 1.09%

SMILES | potentiation
CCCC1OP(=O)(Nc2ccccc2)OCC1CC (centres undefined) | inactive: 0.0372%
CN1CCCCC1COC(=O)C1(O)c2ccccc2CCc2ccccc21 (centres undefined) | inactive: -19.1%
COc1ccccc1OP(C)(=O)Nc1c(C)cccc1C (centres undefined) | inactive: -2.41%
O=P1(Nc2ncccn2)COc2ccccc2OC1 | inactive: -3.95%
CCCOc1ccc(NP(C)(=O)Oc2ccc(Cl)cc2)cc1 (centres undefined) | inactive: -16.6%
Nc1cccc([As](=O)(O)c2ccccc2)c1 | inactive: -9.29%
CP(=O)(Nc1ccc(SC(F)(F)F)cc1)Oc1ccccc1 (centres undefined) | inactive: -5.02%
O=[As](O)(c1cccs1)c1cccs1 | inactive: 0.97%
Cc1ccc(OCC(=O)OC2CN3CCC2CC3)cc1 (centres undefined) | inactive: -23.5%
NS(=O)(=O)c1cccc(NC(=O)COC(=O)C(O)(c2ccccc2)c2ccccc2)c1 | inactive: -6.51%
O=P1(Nc2ccc(Br)cn2)COc2ccccc2OC1 | inactive: 6.21%
CCC1=CC2Cc3nc4ccc(Cl)cc4c(N)c3C(C1)C2 (centres undefined) | inactive: -9.02%
O=P1(Nc2ccccn2)COc2ccccc2OC1 | inactive: -4.13%
O=C(O)C(O)c1ccc(N(CCCl)CCCl)cc1.c1ccncc1 (centres undefined) | inactive: -7.82%
O=[N+]([O-])c1cc([N+](=O)[O-])c(-n2nnc3ccccc32)c([N+](=O)[O-])c1 | inactive: -14.7%
Nc1ccc(CCCCOc2ccccc2)cc1.O=[N+]([O-])c1cc([N+](=O)[O-])c(O)c([N+](=O)[O-])c1 | inactive: -19.5%
CCOP(=O)(NC(=NC(C)c1ccccc1)NC(C)c1ccccc1)OCC (centres undefined) | inactive: -9.85%
CCOP(=O)(Nc1ccc(C)cn1)OCC | inactive: -0.718%
CN(CCCl)Cc1cc(Cl)c(NC2=NCCN2)c(Cl)c1 | inactive: -11.7%
Clc1n[nH]nc1-c1nn[nH][15n]1 | inactive: -6.93%
O=P1(N(CCCl)CCCl)NCCC(C(F)(F)F)O1 (centres undefined) | inactive: -5.31%
CN(Cc1cccnc1)C(=O)COc1ccc(Cl)c(Cl)c1.O=[N+]([O-])c1cc([N+](=O)[O-])c(O)c([N+](=O)[O-])c1 | inactive: -20.5%

Reference: PubChem BioAssay AID624464 (National Center for Advancing Translational Sciences (NCATS), 2012)
